Here are results for one compound from PubChem BioAssay (NCI).

What all share (assay): NCI-60 cell line screen, 48 h
In assay [1] the test system is DLD-1 colon.
Assay [2] relates to DMS 114 small cell lung.
The test system of assay [3] is LXFL 529 NSCLC.
The subject of assay [4] is M19-MEL melanoma.
Assay [5] deals with SNB-78 CNS.

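Briefly, cells in 96-well plates were exposed to five compound concentrations for 48 h, and endpoints were estimated by linear interpolation. GI50 marks 50% less growth. At the TGI there is no net growth.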

Consider `Nc1ccccc1Nc1ccccc1C(=O)[O-].Nc1ccccc1Nc1ccccc1C(=O)[O-].[Zn+2]`, for which the GI50 is > 100 µM in assay [1]; 70.7 µM in assay [2]; 33.9 µM in assay [3]; 23.9 µM in assay [4]; 50.3 µM in assay [5]. Besides, the TGI was > 100 µM in assay [1]; > 100 µM in assay [2]; > 100 µM in assay [3]; 57.9 µM in assay [4]; > 100 µM in assay [5].
